{"sequences": {"note": "The chains behind the UniProt entries cited, without tags or fusion partners. Where a name states a change or a piece, a line headed by the entry shows the natural chain unless it says otherwise.", "UniProt Q9QYN8": "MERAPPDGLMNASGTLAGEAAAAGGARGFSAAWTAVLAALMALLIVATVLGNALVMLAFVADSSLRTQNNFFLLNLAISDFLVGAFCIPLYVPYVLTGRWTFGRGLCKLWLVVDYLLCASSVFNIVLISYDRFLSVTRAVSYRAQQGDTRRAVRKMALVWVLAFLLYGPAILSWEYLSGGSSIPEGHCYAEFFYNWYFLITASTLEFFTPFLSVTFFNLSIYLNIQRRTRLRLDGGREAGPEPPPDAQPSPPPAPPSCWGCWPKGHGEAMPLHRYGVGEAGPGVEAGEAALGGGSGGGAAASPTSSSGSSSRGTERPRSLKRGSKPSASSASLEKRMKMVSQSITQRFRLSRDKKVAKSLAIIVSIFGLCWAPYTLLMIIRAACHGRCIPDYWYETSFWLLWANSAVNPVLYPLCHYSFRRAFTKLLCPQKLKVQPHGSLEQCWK"}, "source": "ChEMBL document CHEMBL1129806", "about": "“Diastereoselective synthesis of trans-2-(1-triphenylmethyl-1H-imidazol-4-yl)cyclopropanecarboxylic acids: key intermediates for the preparation of potent and chiral histamine H3 receptor agents” (Bioorg Med Chem Lett, 1997)", "target": "Histamine H3 receptor (Rattus norvegicus, UniProt Q9QYN8)", "test": "Histamine H3 receptor affinity of compound was determined in rat cortical membranes using the H3 selective agonist ligand, [3H]N-alpha-methylhistamine", "assay_type": "cell membranes, Membrane", "data": [{"compound": "O=C(CCCCC1CCCCC1)N1CCC(c2c[nH]cn2)CC1", "note": "[GT-2016]", "values": [{"measurement": "Ki", "result": 40, "unit": "nM"}]}]}
